# Measured affinities in a library of Ab-14 light chain variants

The measurements come from Li et al. 2023 (doi:10.1038/s41467-023-39022-2) through the FLAb antibody collection.

All variants were tested on one target, the spike HR2 peptide PDVDLGDISGINAS (SARS-CoV-2).

Each scFv is VH, three GGGGS repeats, VL, as in the parent Ab-14, and differs from it in the CDRs of the light chain only.
VH: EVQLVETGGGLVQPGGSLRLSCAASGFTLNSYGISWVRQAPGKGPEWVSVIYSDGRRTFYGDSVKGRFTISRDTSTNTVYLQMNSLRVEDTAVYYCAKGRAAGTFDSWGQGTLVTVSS
VL: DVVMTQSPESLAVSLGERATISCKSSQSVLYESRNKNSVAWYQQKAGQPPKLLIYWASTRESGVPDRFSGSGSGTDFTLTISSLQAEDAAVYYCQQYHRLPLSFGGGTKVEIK

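These sequences belong to a second round, designed from the earlier measurements on random variants of the parent. Their group label is 14L_GP_Gen (GP: Gaussian process model; Gen: genetic algorithm; a sequence that several methods proposed may carry one label only). The assay is AlphaSeq: two haploid yeast populations carry antibody and antigen on their surface. Binding brings cells together so that they mate, and sequencing counts the barcode pairs among the diploids. Scores were corrected for input abundance and mapped to Kd with protein pairs of known affinity run in the same pool. Mating was done six times.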

Substitutions are numbered in sequence along the VL above, starting at 1 (not Kabat). Affinities are written as log10 Kd with Kd in nM; a lower number is a better binder. The parent sequence was in this pool as ten entries: three were never detected, three once, and four in most replicates, with averages from 0.34 to 2.37. The authors averaged sequences with at least three values out of six and counted those with two or fewer as poor binders. Background: pairings of all light chain designs with three empty control strains gave a value in 4% of cases (median 2.64, 5th percentile 1.59). Values in that range, when seen in few replicates, are hard to tell from nonspecific mating. The control count says in how many pairings with the empty strains this scFv gave a signal, with their mean in brackets. A sequence measured in both rounds can read differently, since the two assays cover different ranges.

changes | replicates, log10 nM | control signals
S25L/Q27E/V29M/W56N | 0.71 0.36 1.10 0.66 0.32 0.86 | 0/18
K24A/S25L/V29E/W56N | 0.48 0.74 0.11 0.23 0.21 0.02 | 1/18 (2.41)
S25L/S26Q/L30Q/W56N/T59Q | 0.08 0.61 0.22 0.14 0.19 0.47 | 1/18 (2.85)
S25L/V29D/W56N/T59Q/E61L | 0.32 0.09 -0.04 -0.08 0.03 0.17 | 5/18 (3.11)
S25F/W56Q | 0.28 0.47 0.36 0.05 0.22 0.31 | 1/18 (3.10)
S25L/S26P/L30W/W56E | 0.20 0.12 0.11 0.11 0.00 0.07 | 0/18
S25L/Q27W/V29W/S38N/W56N | -0.16 -0.22 -0.13 -0.35 -0.28 -0.08 | 2/18 (3.58)
S25L/V29T/W56N/E61M | 0.16 0.05 0.03 -0.01 -0.05 0.22 | 1/18 (2.73)
S25L/L30D/W56N/E61M | -0.08 -0.37 -0.50 -0.65 -0.52 -0.37 | 0/18
S25L/S26Q/V29E/L30E/W56E | -0.34 -0.22 -0.08 -0.39 -0.12 -0.41 | 0/18
S25L/S26E/L30D/W56N/E61M | 0.15 -0.24 -0.18 -0.08 -0.27 -0.03 | 3/18 (3.09)
S25L/Q27P/W56N | -0.25 -0.55 -0.57 -0.62 -0.69 -0.34 | 0/18
S25L/S26M/S38A/W56N/T59Q | 0.26 0.04 -0.28 -0.02 0.06 0.10 | 1/18 (2.23)
S25L/S26Q/V29M/W56D/T59Q | -0.35 -0.46 -0.48 -0.67 -0.36 -0.36 | 0/18
V29E/S33D/W56N/T59Q | -0.14 -0.11 -0.28 -0.49 -0.25 0.11 | 1/18 (2.78)
S25L/S26E/V29Q/S38N/W56N/T59Q | -0.28 -0.28 -0.05 -0.37 -0.19 0.00 | 2/18 (2.25)
S25L/K36T/W56N/E61C | 0.08 0.07 -0.08 -0.06 0.01 0.28 | 2/18 (2.40)
S25L/V29N/W56N/T59Q/Q96D | 0.25 0.21 0.00 0.12 0.27 -0.07 | 0/18
S25L/S26P/L30P/W56G | -0.19 -0.22 -0.17 -0.48 -0.26 -0.29 | 0/18
S25L/W56N/E61M/S62Q | 0.28 -0.02 0.17 -0.15 -0.07 0.09 | 0/18
S25L/V29E/L30M/W56E | 0.21 -0.17 -0.13 -0.22 -0.26 -0.01 | 1/18 (2.33)
S25L/S26M/V29W/W56N/T59Q | -0.02 -0.07 -0.17 -0.24 -0.11 -0.03 | 4/18 (2.67)
S25L/S26Y/V29Q/W56Q | 0.21 -0.01 0.06 -0.09 0.00 0.15 | 0/18
S25L/Q27M/V29Q/W56N | -0.20 -0.22 -0.66 -0.84 -0.48 -0.32 | 0/18
S25V/V29D/Y31M/W56E | 0.02 -0.24 -0.15 -0.05 -0.30 0.03 | 1/18 (2.66)
S25L/V29W/W56N/Q96A | 0.37 0.22 0.29 0.12 0.15 0.31 | 2/18 (2.85)
S25L/S26Q/V29Q/W56N/T59Q | 0.07 0.15 0.30 -0.04 0.05 0.21 | 1/18 (2.75)
S25F/V29W/K36S/W56N | -0.14 -0.24 -0.28 -0.34 -0.37 -0.26 | 1/18 (2.83)
S25L/V29E/W56N/E61Y | 0.10 -0.11 -0.08 -0.24 -0.19 -0.07 | 1/18 (3.26)
S25V/S26Q/V29W/W56N/T59Q | -0.16 0.17 0.02 -0.17 0.12 -0.04 | 0/18
S25L/S26Q/V29W/W56G/T59Q | 0.11 0.08 -0.33 -0.32 -0.24 -0.41 | 0/18
S25L/L30G/W56N/S62M | -0.09 -0.23 -0.17 -0.39 -0.36 -0.06 | 3/18 (3.19)
S25L/V29Q/W56D | -0.38 -0.69 -0.79 -0.74 -0.68 -0.35 | 1/18 (1.49)
S25L/N35P/W56N | -0.11 -0.08 -0.22 -0.40 -0.29 -0.06 | 2/18 (2.82)
S25L/V29D/W56E/S62E | 0.37 0.08 -0.01 -0.04 0.30 0.21 | 0/18
S25L/V29D/N35M/W56H | 0.22 0.24 -0.01 -0.15 -0.04 0.14 | 2/18 (3.00)

Excerpt, the first 3 entries:

changes | replicates, log10 nM | control signals
S25L/Q27E/V29M/W56N | 0.71 0.36 1.10 0.66 0.32 0.86 | 0/18
K24A/S25L/V29E/W56N | 0.48 0.74 0.11 0.23 0.21 0.02 | 1/18 (2.41)
S25L/S26Q/L30Q/W56N/T59Q | 0.08 0.61 0.22 0.14 0.19 0.47 | 1/18 (2.85)